In patent publication US20250296967A1, “COMPOSITION AND METHOD FOR DELIVERY OF BMP-2 AMPLIFIER/CO-ACTIVATOR FOR ENHANCEMENT OF OSTEOGENESIS” (Ferring B.V., priority 2006, published 2025):

System: ectopic bone
Test: Ectopic bone induction by B2A2-K-NS coated granules with exogenous recombinant BMP-2, subcutaneous implant in rats
Assay type: in vivo
Conditions: BMP-2 (1 μg) but no B2A2-K-NS, 30 days
Description: Sterile ceramic granules (Berkeley Advanced Biomaterials, Inc.; 60:40 (HA:TCP)) where coated by immersing them for 30 minutes in a solution containing B2A2-K-NS (0-, 2.5-, 10-, 25 μg/ml). Thereafter, the solution was removed by aspiration and the granules allowed to air dry. The coated granules were then placed in sterile gelatin capsules. Immediately before subcutaneous implant in rats, the capsules were injected with a collagen-based gel (GFR-Matrigel) containing 1 μg recombinant BMP-2. The capsules were placed subcutaneously in young adult rats on the flanks in pre-prepared pouches and the surgical site closed with surgical clips. After 30 days, the implants were surgically removed, weighed, and palpated to assess hardness. The explants were then fixed with multiple changes into 70% ethanol. […] All implants coated with 25 ug B2A2-K-NS were judged to be palpably hardened (4/4), whereas implants containing BMP-2 but no B2A2-K-NS had less hardening (1/4). Implants coated with 2.5 or 10 μg B2A2-K-NS were intermediate (3/4). […] All implants coated with 25 ug B2A2-K-NS had histologically identifiable new bone (4/4), whereas implants containing BMP-2 but no B2A2-K-NS had less (1/4).

B1: BMP-2: recombinant bone morphogenic protein-2 in collagen-based gel (protein)
chain: QAKHKQRKRLKSSCKRHPLYVDFSDVGWNDWIVAPPGYHAFYCHGECPFPLADHLNSTNHAIVQTLVNSVNSKIPKACCVPTELSAISMLYLDENEKVVLKNYQDMVVEGCGCR
implants judged palpably hardened: 1/4
implants with histologically identifiable new bone: 1/4
